Assays:
Assay in all cases: cell-based
hNav1.5 = hNav1.5 (Homo sapiens, UniProt Q14524); details: IonWorks Quattro, use-dependent block, read-out: IWQ Use Nav1.5
hNav1.7 = hNav1.7 (Homo sapiens, UniProt Q15858)
hNav1.4 = hNav1.4 (Homo sapiens, UniProt P35499); details: IonWorks Quattro, use-dependent block, read-out: IWQ Use Nav1.4
hNav1.3 = hNav1.3 (Homo sapiens, UniProt Q9NY46)

Chains of the proteins cited; added tags and fusions are not shown.
UniProt Q14524, whole entry, looked up: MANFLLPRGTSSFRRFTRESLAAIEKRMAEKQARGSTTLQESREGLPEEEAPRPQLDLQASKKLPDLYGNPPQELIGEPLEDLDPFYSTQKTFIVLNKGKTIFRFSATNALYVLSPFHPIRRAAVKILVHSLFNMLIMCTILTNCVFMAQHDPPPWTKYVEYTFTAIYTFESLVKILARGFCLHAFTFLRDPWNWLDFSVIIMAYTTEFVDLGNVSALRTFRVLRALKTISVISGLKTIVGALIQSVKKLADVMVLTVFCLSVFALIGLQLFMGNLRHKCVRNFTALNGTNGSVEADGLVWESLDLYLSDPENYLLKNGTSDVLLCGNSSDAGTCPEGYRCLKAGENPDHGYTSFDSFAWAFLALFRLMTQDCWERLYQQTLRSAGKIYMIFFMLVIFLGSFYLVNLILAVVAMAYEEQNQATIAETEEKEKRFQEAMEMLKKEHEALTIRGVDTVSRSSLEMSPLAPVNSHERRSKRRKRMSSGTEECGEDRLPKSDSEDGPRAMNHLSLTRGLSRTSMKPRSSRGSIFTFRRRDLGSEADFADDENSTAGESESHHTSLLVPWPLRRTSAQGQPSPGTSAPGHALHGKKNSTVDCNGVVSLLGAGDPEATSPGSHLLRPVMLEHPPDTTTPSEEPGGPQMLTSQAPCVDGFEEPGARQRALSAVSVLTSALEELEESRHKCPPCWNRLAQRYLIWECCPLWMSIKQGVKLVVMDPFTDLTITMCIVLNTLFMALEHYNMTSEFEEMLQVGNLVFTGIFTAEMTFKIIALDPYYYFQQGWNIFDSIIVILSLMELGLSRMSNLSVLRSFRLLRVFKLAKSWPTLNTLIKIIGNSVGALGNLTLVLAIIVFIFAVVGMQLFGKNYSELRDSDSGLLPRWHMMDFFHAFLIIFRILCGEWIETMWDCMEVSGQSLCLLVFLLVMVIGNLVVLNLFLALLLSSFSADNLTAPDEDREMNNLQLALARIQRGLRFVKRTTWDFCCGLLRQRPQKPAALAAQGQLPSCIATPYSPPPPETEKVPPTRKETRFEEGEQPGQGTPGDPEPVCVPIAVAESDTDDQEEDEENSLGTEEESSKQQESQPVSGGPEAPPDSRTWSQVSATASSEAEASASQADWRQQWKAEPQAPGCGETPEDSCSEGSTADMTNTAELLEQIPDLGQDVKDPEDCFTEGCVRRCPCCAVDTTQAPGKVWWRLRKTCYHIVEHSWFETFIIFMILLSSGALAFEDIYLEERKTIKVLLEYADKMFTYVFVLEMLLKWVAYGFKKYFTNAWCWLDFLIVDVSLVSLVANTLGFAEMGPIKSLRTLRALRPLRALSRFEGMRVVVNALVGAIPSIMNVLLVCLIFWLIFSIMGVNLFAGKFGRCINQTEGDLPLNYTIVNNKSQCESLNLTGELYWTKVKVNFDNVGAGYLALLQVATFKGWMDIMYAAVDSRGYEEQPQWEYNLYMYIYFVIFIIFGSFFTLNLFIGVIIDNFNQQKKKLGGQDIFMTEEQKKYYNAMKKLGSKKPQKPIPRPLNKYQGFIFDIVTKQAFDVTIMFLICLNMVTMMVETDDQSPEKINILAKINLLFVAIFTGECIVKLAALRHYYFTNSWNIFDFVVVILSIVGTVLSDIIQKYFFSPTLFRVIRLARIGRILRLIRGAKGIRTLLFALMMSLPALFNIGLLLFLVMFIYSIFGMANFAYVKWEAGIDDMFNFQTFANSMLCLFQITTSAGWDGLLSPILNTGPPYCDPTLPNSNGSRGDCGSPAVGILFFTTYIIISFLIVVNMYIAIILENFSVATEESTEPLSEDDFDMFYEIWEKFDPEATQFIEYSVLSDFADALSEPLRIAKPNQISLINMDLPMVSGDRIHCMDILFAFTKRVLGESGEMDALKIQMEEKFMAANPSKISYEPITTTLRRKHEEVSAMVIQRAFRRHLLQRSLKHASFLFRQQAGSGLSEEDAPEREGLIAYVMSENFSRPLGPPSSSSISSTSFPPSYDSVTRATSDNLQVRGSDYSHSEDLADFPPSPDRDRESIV
UniProt P35499, whole entry, looked up: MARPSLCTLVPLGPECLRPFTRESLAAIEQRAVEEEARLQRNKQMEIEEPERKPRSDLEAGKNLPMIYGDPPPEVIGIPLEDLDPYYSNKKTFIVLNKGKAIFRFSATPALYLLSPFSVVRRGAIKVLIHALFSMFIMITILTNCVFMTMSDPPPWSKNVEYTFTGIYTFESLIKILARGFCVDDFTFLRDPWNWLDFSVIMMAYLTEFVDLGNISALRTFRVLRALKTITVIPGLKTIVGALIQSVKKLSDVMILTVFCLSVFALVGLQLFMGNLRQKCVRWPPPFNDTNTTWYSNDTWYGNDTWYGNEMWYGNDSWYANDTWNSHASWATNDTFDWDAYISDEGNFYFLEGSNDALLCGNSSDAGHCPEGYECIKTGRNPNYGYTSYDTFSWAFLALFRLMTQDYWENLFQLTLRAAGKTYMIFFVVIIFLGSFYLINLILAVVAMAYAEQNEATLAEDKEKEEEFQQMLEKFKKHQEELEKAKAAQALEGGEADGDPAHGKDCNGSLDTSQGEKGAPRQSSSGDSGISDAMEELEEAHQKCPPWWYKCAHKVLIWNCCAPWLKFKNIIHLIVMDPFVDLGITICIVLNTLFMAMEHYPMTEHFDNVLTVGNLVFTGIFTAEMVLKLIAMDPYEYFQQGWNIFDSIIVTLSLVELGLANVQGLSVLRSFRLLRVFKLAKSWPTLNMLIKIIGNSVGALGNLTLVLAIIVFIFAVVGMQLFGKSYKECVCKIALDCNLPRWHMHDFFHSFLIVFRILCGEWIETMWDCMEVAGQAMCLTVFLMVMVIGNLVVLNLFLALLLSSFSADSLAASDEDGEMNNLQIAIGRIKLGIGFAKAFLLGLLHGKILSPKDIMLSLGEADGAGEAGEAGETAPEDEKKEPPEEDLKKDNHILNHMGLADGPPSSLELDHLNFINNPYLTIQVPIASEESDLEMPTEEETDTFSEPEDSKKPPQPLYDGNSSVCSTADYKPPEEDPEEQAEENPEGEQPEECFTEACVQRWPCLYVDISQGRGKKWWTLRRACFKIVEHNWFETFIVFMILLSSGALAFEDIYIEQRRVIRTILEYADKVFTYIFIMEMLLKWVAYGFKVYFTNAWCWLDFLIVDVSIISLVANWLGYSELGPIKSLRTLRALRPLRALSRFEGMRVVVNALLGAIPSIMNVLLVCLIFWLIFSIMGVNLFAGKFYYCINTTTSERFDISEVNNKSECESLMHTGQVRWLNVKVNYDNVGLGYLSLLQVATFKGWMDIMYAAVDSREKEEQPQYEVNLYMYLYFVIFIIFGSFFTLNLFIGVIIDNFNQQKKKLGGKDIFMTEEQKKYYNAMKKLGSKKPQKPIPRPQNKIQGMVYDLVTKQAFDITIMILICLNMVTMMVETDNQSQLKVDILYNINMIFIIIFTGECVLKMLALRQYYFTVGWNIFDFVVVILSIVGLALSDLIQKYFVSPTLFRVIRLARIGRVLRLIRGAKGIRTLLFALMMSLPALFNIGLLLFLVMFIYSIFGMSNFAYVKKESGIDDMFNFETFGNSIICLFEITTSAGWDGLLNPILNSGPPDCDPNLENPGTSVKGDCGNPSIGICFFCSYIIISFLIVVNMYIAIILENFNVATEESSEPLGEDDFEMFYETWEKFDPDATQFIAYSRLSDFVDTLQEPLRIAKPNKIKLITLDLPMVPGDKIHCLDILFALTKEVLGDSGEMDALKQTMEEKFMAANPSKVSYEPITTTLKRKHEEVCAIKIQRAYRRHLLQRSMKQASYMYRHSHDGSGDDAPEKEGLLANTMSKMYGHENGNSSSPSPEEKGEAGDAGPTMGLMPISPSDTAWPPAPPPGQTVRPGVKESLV
UniProt Q9NY46, whole entry, looked up: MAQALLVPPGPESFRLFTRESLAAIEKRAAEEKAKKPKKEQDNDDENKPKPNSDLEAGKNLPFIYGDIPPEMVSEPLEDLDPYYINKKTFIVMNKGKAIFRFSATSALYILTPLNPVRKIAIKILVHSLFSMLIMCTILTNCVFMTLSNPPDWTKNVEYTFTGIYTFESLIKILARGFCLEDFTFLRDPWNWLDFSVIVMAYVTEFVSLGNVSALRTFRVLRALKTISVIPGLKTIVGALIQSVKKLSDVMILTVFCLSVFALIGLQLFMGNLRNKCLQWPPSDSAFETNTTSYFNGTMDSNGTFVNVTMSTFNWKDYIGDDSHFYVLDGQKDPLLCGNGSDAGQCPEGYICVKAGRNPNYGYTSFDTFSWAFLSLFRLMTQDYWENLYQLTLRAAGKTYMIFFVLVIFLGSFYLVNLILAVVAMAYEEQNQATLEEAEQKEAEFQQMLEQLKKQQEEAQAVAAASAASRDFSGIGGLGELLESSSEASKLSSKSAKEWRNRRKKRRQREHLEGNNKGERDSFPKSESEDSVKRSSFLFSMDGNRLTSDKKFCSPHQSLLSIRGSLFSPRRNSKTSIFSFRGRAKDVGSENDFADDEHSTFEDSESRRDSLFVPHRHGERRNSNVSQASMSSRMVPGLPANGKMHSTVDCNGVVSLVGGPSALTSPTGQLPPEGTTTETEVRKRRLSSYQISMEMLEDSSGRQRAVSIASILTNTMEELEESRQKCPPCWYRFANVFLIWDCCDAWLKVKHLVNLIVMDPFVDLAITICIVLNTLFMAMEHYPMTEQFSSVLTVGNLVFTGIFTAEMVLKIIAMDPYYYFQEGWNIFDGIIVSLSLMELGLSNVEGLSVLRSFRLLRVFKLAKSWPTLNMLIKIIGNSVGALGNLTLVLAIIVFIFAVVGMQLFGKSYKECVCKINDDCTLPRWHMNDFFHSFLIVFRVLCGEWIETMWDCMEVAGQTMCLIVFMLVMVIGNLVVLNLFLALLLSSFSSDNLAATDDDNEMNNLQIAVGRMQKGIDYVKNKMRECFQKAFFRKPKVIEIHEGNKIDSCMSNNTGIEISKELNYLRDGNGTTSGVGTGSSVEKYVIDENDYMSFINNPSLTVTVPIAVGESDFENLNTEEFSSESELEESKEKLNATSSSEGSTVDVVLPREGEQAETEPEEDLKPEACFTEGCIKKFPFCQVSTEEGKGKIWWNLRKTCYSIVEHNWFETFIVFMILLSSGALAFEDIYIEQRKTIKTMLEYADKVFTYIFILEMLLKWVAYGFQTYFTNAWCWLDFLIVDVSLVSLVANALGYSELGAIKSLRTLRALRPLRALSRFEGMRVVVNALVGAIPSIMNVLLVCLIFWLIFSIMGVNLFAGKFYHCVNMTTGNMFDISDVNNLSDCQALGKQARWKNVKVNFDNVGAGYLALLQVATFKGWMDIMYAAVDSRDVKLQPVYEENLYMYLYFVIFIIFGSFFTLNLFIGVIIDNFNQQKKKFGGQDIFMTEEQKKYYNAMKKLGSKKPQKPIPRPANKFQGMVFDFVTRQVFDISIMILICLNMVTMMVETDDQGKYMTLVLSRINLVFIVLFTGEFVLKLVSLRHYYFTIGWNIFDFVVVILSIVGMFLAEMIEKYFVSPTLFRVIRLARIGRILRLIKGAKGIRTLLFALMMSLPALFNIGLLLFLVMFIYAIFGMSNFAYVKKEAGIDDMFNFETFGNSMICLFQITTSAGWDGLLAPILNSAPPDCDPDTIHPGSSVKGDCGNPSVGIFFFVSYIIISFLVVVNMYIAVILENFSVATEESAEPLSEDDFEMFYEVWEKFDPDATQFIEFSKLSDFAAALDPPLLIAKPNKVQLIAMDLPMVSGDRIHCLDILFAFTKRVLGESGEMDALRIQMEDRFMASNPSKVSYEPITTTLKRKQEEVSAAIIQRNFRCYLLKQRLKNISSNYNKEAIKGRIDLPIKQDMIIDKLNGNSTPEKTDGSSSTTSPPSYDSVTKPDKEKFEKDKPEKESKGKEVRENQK

## CC(C)C[C@@H]1NC(=O)[C@@H](NC(=O)[C@@H](N)CC(=O)O)CSSC[C@@H]2NC(=O)[C@@H]3CSSC[C@@H](C(=O)N[C@@H](CCCCN)C(=O)N[C@@H](Cc4ccc(O)cc4)C(=O)N[C@@H](CCCCN)C(=O)N[C@@H](CC(C)C)C(=O)N[C@@H](Cc4c[nH]c5ccccc45)C(=O)O)NC(=O)[C@H](Cc4c[nH]c5ccccc45)NC(=O)[C@H](CCCCN)NC(=O)[C@H](CC(=O)O)NC(=O)[C@H](CCCNC(=N)N)NC(=O)[C@H](CCCNC(=N)N)NC(=O)[C@H](CC(N)=O)NC(=O)[C@H](CSSC[C@H](NC(=O)CNC(=O)[C@H](CCCCN)NC(=O)[C@H](Cc4ccccc4)NC(=O)[C@H](Cc4c[nH]c5ccccc45)NC(=O)CNC1=O)C(=O)N[C@@H](CC(=O)O)C(=O)N1CCC[C@H]1C(=O)N[C@@H](CC(=O)O)C(=O)N[C@@H](CC(N)=O)C(=O)N[C@@H](CC(=O)O)C(=O)N[C@@H](CCCCN)C(=O)N3)NC(=O)[C@H](CCCCN)NC(=O)[C@H](Cc1ccc(O)cc1)NC(=O)CNC(=O)[C@H](CCC(=O)O)NC2=O [compound 472]
hNav1.5
  IC50: 7300 nM
hNav1.7; IonWorks Quattro, use-dependent block, hNav1.7, read-out: IWQ Use Nav1.7
  IC50: 1300 nM
hNav1.7; ratio of IWQ Use values, Nav1.4 over Nav1.7
  Nav1.4/Nav1.7: 3.2
hNav1.4
  IC50: 4100 nM
hNav1.3; IonWorks Quattro, use-dependent block, hNav1.3, read-out: IWQ Use Nav1.3
  IC50: 540 nM
hNav1.3; ratio of IWQ Use values, Nav1.4 over Nav1.3
  Nav1.4/Nav1.3: 7.6
hNav1.3; ratio of IWQ Use values, Nav1.7 over Nav1.3
  Nav1.7/Nav1.3: 2.4
